Protein sequences, listed by entry. Tags and fused reporters are not part of them.
Guanine nucleotide-binding protein G(i) subunit alpha-3 (Rattus norvegicus), P08753, UniProt P08753, whole entry, looked up: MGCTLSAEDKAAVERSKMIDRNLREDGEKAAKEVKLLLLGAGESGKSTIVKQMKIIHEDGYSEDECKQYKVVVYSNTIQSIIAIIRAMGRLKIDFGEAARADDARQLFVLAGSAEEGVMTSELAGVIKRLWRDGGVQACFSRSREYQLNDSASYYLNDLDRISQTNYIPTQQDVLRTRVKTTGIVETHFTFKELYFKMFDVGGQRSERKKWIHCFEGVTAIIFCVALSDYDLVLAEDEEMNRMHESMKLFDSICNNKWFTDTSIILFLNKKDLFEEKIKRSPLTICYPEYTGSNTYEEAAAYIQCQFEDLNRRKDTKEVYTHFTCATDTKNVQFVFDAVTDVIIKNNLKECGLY

# GIV-Gai inh: inhibitors of GIV peptide binding to Galpha-i3, primary screen, biochemical, fluorescence polarization, FITC-GIV GBA peptide, rat Galphai3. Guanine nucleotide-binding protein G(i) subunit alpha-3 (Rattus norvegicus), P08753. 90 min; stronger effect = lower value; scaled: aluminum fluoride 0%, vehicle 100%. percent of control (FP), % (test concentration not listed). hit rate 0.42% among 210,000. AID 1224905, 2016;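 active = replicate mean at 85% of control or lower, very high polarization wells dropped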;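 note: wells of about 15 µL received 100 nL stock; the first replicate is given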
# HCMV NEC inh: cytomegalovirus nuclear egress complex inhibition; AID 1918969; HTRF UL50-UL53 interaction, normalized percent inhibition; inhibition, % (no concentration beside the values); hit rate 0.15% among 190,000; in the data active = inhibition above about 27%, passing the limit was not always enough
# Numbers without * were called inactive; · = no result given. The list is not random: actives were taken first. Their share in the collection is about 0.46%.
SMILES,GIV-Gai inh,HCMV NEC inh
CC(=O)Nc1sc2c(c1-c1nc3ccccc3s1)CCN(C(C)C)C2,-3.2*,·
CC(C)N1CCc2c(sc(NC(=O)C(C)(C)C)c2-c2nc3ccccc3s2)C1,-26*,·
CN1CCc2c(sc(NC(=O)c3nc4ccccc4s3)c2-c2nc3ccccc3s2)C1,96,·
COc1ccc(C(=O)Nc2sc3c(c2-c2nc4ccccc4s2)CCN(C(C)C)C3)cc1OC,-3.2*,·
COC(=O)c1ccc(C(=O)Nc2sc3c(c2-c2nc4ccccc4s2)CCN(C(C)C)C3)cc1,262,·
CC(=O)N1CCc2c(sc(NC(=O)C(C)C)c2-c2nc3ccccc3s2)C1,·,-17
CCN1CCc2c(sc(NC(=O)c3ccc(Cl)cc3)c2-c2nc3ccccc3s2)C1,-3.2*,·
CCN1CCc2c(sc(NC(=O)CSc3ccccc3)c2-c2nc3ccccc3s2)C1,169,·
CN(C)C(=O)C(C)(C)Oc1cc(C(F)(F)F)n(C)n1,103,2
COc1ccc(-n2nc(C(=O)NCc3ccc(C)cc3)c3c4ccccc4n(C)c3c2=O)cc1Cl,100,·
CCS(=O)(=O)c1nc(S(=O)(=O)c2ccc(C)cc2)c(NCc2ccco2)s1,114,5
Cn1c(NN)nc2ccccc21,·,-4
ONC(=NCc1ccccc1)c1cccc(Cl)c1,·,-5
N#Cc1ccc(CSc2nnnn2C2CC2)cc1,·,0
O=C(CN1C(=O)S/C(=C/c2ccc(N3CCCCCC3)o2)C1=O)N1CCCCCC1,·,-25
COC(=O)C(C)N1C(=O)S/C(=C/c2ccc(N3CCCCCC3)o2)C1=O (stereo unspecified),-15*,-47
COc1cccc(NC(=O)c2cc3ccccc3oc2=O)c1,·,-2
N=c1oc2c(Cl)cc(Cl)cc2cc1C(=O)Nc1ccc(F)cc1,100,-8
Cc1ccc(NC(=O)c2cc3cc4c5c(c3oc2=N)CCCN5CCC4)cc1,-14*,-23
COc1cccc(NC(=O)c2cc3cc4c5c(c3oc2=N)CCCN5CCC4)c1,-14*,-21
CCc1ccccc1N1C(=O)NC(=O)/C(=C\c2ccc(N(CC)CC)o2)C1=O,-59*,-74
CCOc1ccc(N2C(=O)NC(=O)/C(=C\c3ccc(Br)o3)C2=O)cc1,131,·
Cc1[nH]n(-c2ccccc2)c(=O)c1C1=c2ccccc2=NC1=O,·,68*
CCc1cccc2c1=NC(=O)C=2c1c(C)[nH]n(-c2ccccc2)c1=O,104,1
CNC(=O)N1CCC(CC(=O)NCc2ccccc2)CC1,101,-14

# Part of the list above, bar-delimited:
canonical_smiles | GIV-Gai inh | HCMV NEC inh
COc1cccc(NC(=O)c2cc3ccccc3oc2=O)c1 | · | -2
CC(C)N1CCc2c(sc(NC(=O)C(C)(C)C)c2-c2nc3ccccc3s2)C1 | -26* | ·
Cc1[nH]n(-c2ccccc2)c(=O)c1C1=c2ccccc2=NC1=O | · | 68*
N=c1oc2c(Cl)cc(Cl)cc2cc1C(=O)Nc1ccc(F)cc1 | 100 | -8

# Continued.
SMILES,GIV-Gai inh,HCMV NEC inh
Cc1noc(C)c1CCNC(=O)c1ccc(Cl)c(-n2c(C)nc3cccnc32)c1,112,-4
CCOC(=O)CN1C(=O)/C(=C/c2ccccc2)SC1=S,·,-34
COC(=O)CN1C(=O)C(=Cc2ccc(N(C)C)cc2)SC1=S,-42*,·
COC(=O)CN1C(=O)/C(=C\c2ccc(O)cc2)SC1=S,-42*,·
CCN1C(=O)/C(=C\c2ccc(OCC(N)=O)c(OC)c2)SC1=S,·,-14
CCCN1C(=O)/C(=C/c2ccc(O)c(OC)c2)SC1=S,-34*,-28
COC(=O)CN1C(=O)S/C(=C\c2ccccc2)C1=O,103,-48
O=C(OCC(=O)N1CCC(Cc2ccccc2)CC1)C1CCC1,·,-25
COc1cccc(NC(=O)N(Cc2cc3ccc(C)cc3n3nnnc23)CC2CCCO2)c1 (stereo unspecified),102,17
Cc1cccn2c(=O)c(/C=C3\SC(=S)N(Cc4ccccc4)C3=O)c(NCc3ccco3)nc12,265,·
C=CCNc1nc2c(C)cccn2c(=O)c1/C=C1\SC(=S)NC1=O,-42*,·
CC(C)Cn1nc2ccc(S(=O)(=O)N3CCC(C)CC3)cn2c1=O,99,·
Cc1nc2nc(-c3ccccc3)c(-c3ccccc3)n2nc1C,116,·
c1ccc(-c2nc3nc(-c4ccccc4)c(-c4ccccc4)n3nc2-c2ccccc2)cc1,-31*,·
O=C(CCN1CCN(c2ccccc2)CC1)N/N=C1/CCCc2ccccc21,·,-6
CC(C)c1ccc(NC(=O)CSC2=NNC(c3ccccn3)S2)cc1 (stereo unspecified),·,-17
CC(C)N1CCc2c(sc(N)c2C(N)=O)C1,-67*,·
CC(C)N1CCc2c(sc(NC(=O)C3=COCCO3)c2C(N)=O)C1,278,-63
Cc1ccc2nc3nc(NCc4cccnc4)c(C(N)=O)cc3c(=O)n2c1,106,-71
CCOC(=O)Cn1cc(/C=C2\C(=O)NC(=O)N(c3ccc(Br)cc3)C2=O)c2ccccc21,112,4
CCOC(=O)Cn1cc(/C=C2\C(=O)NC(=O)N(c3ccc(F)cc3)C2=O)c2ccccc21,-36*,·
CN(C(=O)Cn1cnc2onc(-c3ccc(F)cc3)c2c1=O)c1ccccc1Cl,102,·
COC(=O)c1ccc(NC(=O)c2ccc(Cl)cc2)s1,·,-30
CCCCCCc1cc2cc(-c3nnc(-c4cccc(Cl)c4)o3)c(=O)oc2cc1O,7.6*,-49
O=c1oc2ccccc2cc1-c1nnc(-c2cccc(Cl)c2)o1,101,5

# The list continues:
SMILES,GIV-Gai inh,HCMV NEC inh
CCNc1nc2ccccn2c(=O)c1/C=C1\SC(=S)N(Cc2ccco2)C1=O,-75*,-11
C=CCN1C(=O)/C(=C/c2c(NCc3ccco3)nc3ccccn3c2=O)SC1=S,-83*,-14
COc1ccc(CCN2C(=O)/C(=C/c3c(NCc4ccccc4)nc4ccccn4c3=O)SC2=S)cc1OC,139,·
C=CCN1C(=O)/C(=C/c2c(NCC)nc3ccccn3c2=O)SC1=S,-33*,·
CCN1C(=O)/C(=C/c2c(NC(C)C)nc3ccccn3c2=O)SC1=S,293,-13
O=C1/C(=C/c2c(NCc3ccco3)nc3ccccn3c2=O)SC(=S)N1C1CCCCC1,109,·
COc1ccc(N2C(=O)C3C4C=CC(O4)C3C2=O)c([N+](=O)[O-])c1 (stereo unspecified),102,-50
CCOC(=O)c1cc(S(=O)(=O)N2CCCC2C(=O)N2CCc3ccccc32)cn1C (stereo unspecified),105,-16
O=C(CSc1nc2ccccc2[nH]1)Nc1nc2ccc([N+](=O)[O-])cc2s1,107,·
CC(C)COC(=O)c1ccc(O)cc1,98,-12
Cc1ccc2c(c1)C1(OCCCO1)C(=O)N2CC(=O)O,102,·
CCOc1cccc(CN2C(=O)c3ccccc3CC2(C)C(=O)NCc2ccc(Cl)cc2)c1 (stereo unspecified),111,·
Cc1nc(CSCC(=O)O)cs1,·,4
CCCn1c(=O)n(C)c(=O)c2c(SCC(=O)O)nc(CC(C)C)nc21,·,7
CC(Sc1nc2c([nH]1)c(=O)n(C)c(=O)n2C)C(=O)O (stereo unspecified),85*,-11
Cn1c(=O)c2[nH]c(SCC(=O)C(C)(C)C)nc2n(C)c1=O,·,-11
Cc1ccc(C(=O)OC2=C(c3ccccc3)C(=O)c3ccccc3C2=O)cc1,102,·
Cc1ccc(C(=O)OC2=CC(=O)c3ccccc3C2=O)cc1,84*,36
S=c1nc(-c2ccccc2)n(CC2CCCO2)c2c1CCCC2 (stereo unspecified),102,-20
COc1cc(C=C2C(=O)NC(=O)NC2=O)cc(Br)c1OCC(C)C,105,87*
COc1cc(C=C2C(=O)NC(=O)NC2=O)cc(Cl)c1OCCOc1cccc(C)c1,86,44*
COc1cc(C=C2C(=O)NC(=O)NC2=O)ccc1OCC(C)C,98,-3
COc1cc(C=C2C(=O)NC(=S)NC2=O)cc(Cl)c1OCCOc1ccccc1,91,-13
COc1cc(C=C2C(=O)NC(=O)NC2=O)cc(Br)c1OCc1ccccc1Cl,105,7

# Reprinted at random: 4 records from the list
SMILES,GIV-Gai inh,HCMV NEC inh
CCOc1cccc(CN2C(=O)c3ccccc3CC2(C)C(=O)NCc2ccc(Cl)cc2)c1 (stereo unspecified),111,·
Cc1ccc(C(=O)OC2=CC(=O)c3ccccc3C2=O)cc1,84*,36
C=CCN1C(=O)/C(=C/c2c(NCc3ccco3)nc3ccccn3c2=O)SC1=S,-83*,-14
CCN1C(=O)/C(=C/c2c(NC(C)C)nc3ccccn3c2=O)SC1=S,293,-13

# Source: PubChem
